Laboratory results taken from ChEMBL document CHEMBL3593225 (Bioorg Med Chem, 2015).

Protein sequences, listed by entry. Tags and fused reporters are not part of them.
UniProt P08908, whole entry: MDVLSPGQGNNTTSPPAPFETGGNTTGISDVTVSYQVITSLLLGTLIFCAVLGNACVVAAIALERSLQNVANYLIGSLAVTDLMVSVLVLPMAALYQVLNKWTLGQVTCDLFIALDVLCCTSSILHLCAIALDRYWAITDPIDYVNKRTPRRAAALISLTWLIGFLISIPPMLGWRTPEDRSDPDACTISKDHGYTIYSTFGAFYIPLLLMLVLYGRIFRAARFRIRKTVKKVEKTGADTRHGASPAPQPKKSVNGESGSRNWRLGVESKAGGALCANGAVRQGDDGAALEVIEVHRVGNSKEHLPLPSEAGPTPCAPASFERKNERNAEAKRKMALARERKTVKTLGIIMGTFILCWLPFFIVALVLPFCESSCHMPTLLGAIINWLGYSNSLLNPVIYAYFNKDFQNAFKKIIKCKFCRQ

How the values were obtained:
[1] = biological target: T1, 5-hydroxytryptamine receptor 1A (Homo sapiens, UniProt P08908); assay: Ratio for agonist activity at human 5-HT1A receptor expressed in CHO cells by forskolin-stimulated cAMP accumulation assay to agonist activity at human 5-HT1A receptor expressed in CHO cells by beta-arrestin-2 recruitment assay; assay type: functional, cell-based
[2] = biological target: T1, 5-hydroxytryptamine receptor 1A; assay: Agonist activity at human 5-HT1A receptor expressed in CHO cells assessed as inhibition of forskolin-stimulated cAMP accumulation after 15 mins by ELISA relative to 5-HT; assay type: functional, cell-based
Procedure, shortened: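 CHO-1A cells (10^4/well) grown 24 h, then 24 h in serum-free DMEM/F-12. Compounds co-incubated with 1 μM forskolin for 15 min at 37 °C in serum-free medium with 5 μM pargyline and 2.5 mM theophylline. Lysis in 1% Triton X-100/0.1 M HCl, cAMP measured by acetylated ELISA. Forskolin alone set as 0%, 5-HT maximum as 100%. Sigmoidal or Gaussian bell-shaped fits.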

[3] = biological target: T1, 5-hydroxytryptamine receptor 1A; assay: Agonist activity at human 5-HT1A receptor expressed in CHO cells after 90 mins by beta-arrestin-2 recruitment assay relative to 5-HT; assay type: cell-based
Procedure, shortened: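 PathHunter enzyme-complementation β-arrestin-2 recruitment in CHO-K1 cells carrying HTR1A, 10^4 cells/well, plated 24–48 h at 37 °C before use. Compounds from methanol stocks, final 0.1–100 μM, applied for 90 min at 37 °C. Detection reagents then added for 60 min at room temperature, luminescence read. Pooled from 3–4 independent experiments in duplicate, with 5-HT on every plate as reference.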

## COc1cccc2c1CCCC2CCCN1CCN(c2ccccn2)CC1 (stereo not drawn)
[1]
  Ratio: < 10
[2]
  Emax: 59.6%
[3]
  Emax: 16.2%
